Measured affinities in a library of Ab-95 light chain variants

Target peptide (SARS-CoV-2 spike, HR2 region): PDVDLGDISGINAS

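The parent was found by panning a naive human phage display library on the peptide. The library (AAYL52) carries one to three amino acid substitutions per variant, with no insertions or deletions. In AlphaSeq, yeast of one mating type display the scFv and yeast of the other type display the target. Binding brings cells together so that they mate, and sequencing counts the barcode pairs among the diploids. The ratio of observed to expected reads was calibrated, replicate by replicate, on BCL2-family standards whose Kd was known from biolayer interferometry. Each pool was mated in three replicate cultures.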

Each scFv is VH, a 15-residue (Gly4Ser)3 linker, VL, as in the parent Ab-95, and differs from it in the CDRs of the light chain only.
VH: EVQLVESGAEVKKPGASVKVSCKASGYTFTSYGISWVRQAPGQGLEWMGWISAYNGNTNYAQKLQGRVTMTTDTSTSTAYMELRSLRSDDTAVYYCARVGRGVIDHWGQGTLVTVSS
VL: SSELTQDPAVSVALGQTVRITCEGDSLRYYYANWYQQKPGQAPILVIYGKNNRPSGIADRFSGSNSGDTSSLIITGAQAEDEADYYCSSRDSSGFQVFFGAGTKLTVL

Substitutions are numbered in sequence along the VL above, starting at 1 (not Kabat).
Values are apparent Kd, the geometric mean of the replicates that gave a signal; lower means stronger binding.
An entry "not detected" has no value in the source: the pair was not observed among the diploids in any replicate. This suggests poor binding but is not conclusive.

changes,apparent Kd,detected
Y29M+Y30T+V97R,27 nM,3 of 3
S89Q+D91L+Q96K,not detected,0 of 3
N52W+R90Y,140 µM,2 of 3
L27W+N33P+S89Q,not detected,0 of 3
N33Y+S89F+F98N,not detected,0 of 3
R28H+Y30H+Y31W,230 nM,3 of 3
E23T+K50N+V97G,430 nM,3 of 3
R28H+G49W+G94F,not detected,0 of 3
L27C+S89I+S92K,2.0 µM,1 of 3
N33P+G49I+S89W,73 µM,2 of 3
G24W+N33G+G49K,15 µM,1 of 3
A32R+K50C+R53Q,4.6 µM,3 of 3
N51K+P54Q+R90D,not detected,0 of 3
R28S+N51F+F98W,90 nM,2 of 3
K50C+S88N+S93T,8.6 µM,1 of 3
G94S+V97K,1.2 µM,3 of 3
R28L+S88D+S92A,440 nM,3 of 3
S26V+N51G+V97Y,30 µM,2 of 3
A32R+P54R+R90V,170 µM,1 of 3
E23A+S26H+S55I,340 nM,3 of 3
L27E+R90T+S92T,not detected,0 of 3
E23V+D91Q+F95Q,680 nM,3 of 3
R28W+K50F+N51V,not detected,0 of 3
Y31I+G94I+Q96F,1.3 µM,2 of 3
G24W+P54F+S93K,2.7 µM,1 of 3
S26A+S92T,800 nM,3 of 3
S26Y+A32H+S55P,not detected,0 of 3
L27Y+R90M+D91I,5.5 µM,2 of 3
Y30A+Y31M+S89N,110 nM,3 of 3
E23V+Y31V+P54A,770 nM,3 of 3
P54L+S89E+S92E,7.2 µM,3 of 3
Y29D+P54K+S88L,not detected,0 of 3
Y30H+G49E+N51Q,20 nM,3 of 3
G24K+S55F,23 µM,2 of 3
G24C+N33S+F95S,8.9 µM,1 of 3
E23G+G24E+K50T,99 µM,3 of 3
G49A+K50N+Q96D,2.7 µM,2 of 3
S26L+N33V+G94W,4.1 µM,2 of 3
G24M+N33A+G94L,not detected,0 of 3
G24R+N51L+S89P,7.2 µM,1 of 3
L27G+R28A+Y29G,200 nM,3 of 3
Y30R+Y31M+S89D,840 nM,3 of 3
G49D+P54V+R90C,14 µM,3 of 3
S26L+L27S,5.3 µM,3 of 3
E23L+P54S+V97Q,470 nM,3 of 3
S55R+G94M+F95K,1.4 µM,2 of 3
R28W+S55T+F98W,810 nM,3 of 3
L27Y+K50P+F98Q,38 nM,3 of 3
Y31H+G94I,320 nM,3 of 3
Y30V+G49E+V97R,1.4 µM,3 of 3
N33A+N52T+Q96A,1.7 µM,3 of 3
L27S+F95P+Q96A,not detected,0 of 3

From the list, the first 3 with no signal in any replicate:

changes	apparent Kd	detected
S89Q+D91L+Q96K	not detected	0 of 3
L27W+N33P+S89Q	not detected	0 of 3
N33Y+S89F+F98N	not detected	0 of 3

Nonspecific signal, from three strains lacking the peptide, appeared in 28% of pairings of library AAYL52, centred on 8.2 µM (5% of these signals below 800 nM); values are not corrected for it.
In this assay the parent's reference entry averaged 200 nM; its copy inside this library read 180 nM.

Values reported by Engelhart et al. 2022, doi:10.1038/s41597-022-01779-4 (FLAb copy).